Literature values as cited in patent US20260207540A1 (priority 2020, published 2026).

Conditions: 2.4 mg/mL, asthmatics

disodium ethylenediamine tetraacetate [disodium edetate]
drop in FEV1, on average: 20%
